The record followed here is patent EP2481744A1, “Aromatic bis-phosphoramidate additives as flame retardants for polymers” (EMPA Eidgenössische Materialprüfungs- und Forschungsanstalt, priority 2011, dated 2012).

In brackets after ≈: the same amount, converted by molar mass.

Data set [1] is described as follows: Pyrolysis flow combustion calorimeter (PCFC) of the synthesized compounds. The note with it: neat compound. It is filed as physicochemical.
Data set [2] can be described thus: Thermogravimetric analysis (TGA) of the synthesized compounds. It is filed as physicochemical. Conditions: neat compound, nitrogen, 10°C/min.
A short description of data set [3]: Solubility in deionized water (shaking flask, phosphorus content by ICP-OES). The note with it: 0.5 gm in 50 ml deionized water, 21 °C, 16 hrs.

Usually Solubility stands for the dissolved amount per volume that the medium holds. Read a high Solubility as a readily soluble substance. In turn, `COP(=O)(Nc1ccc(NP(=O)(OC)OC)cc1)OC` yielded a PHRR in data set [1] (PCFC) of 201 W/g. The “Char at 800 °C” value in data set [1] (PCFC (% residue)) was 34. This molecule also had a THC in data set [1] (PCFC, nitrogen, 40 to 800°C, 1°C/sec, average of three samples) of 7.99 kJ/g. In addition, in data set [2], the Onset of decomposition was 214 °C, the “Residue at 500 °C” value is 36 and the “Residue at 800 °C” value worked out at 20. In data set [3], this molecule had a Solubility of 330 µg/mL (≈ 1020 µM).
